Results: BindingDB's records for 25147605

The chains behind the UniProt entries cited, without tags or fusion partners.
UniProt P42866, whole entry, looked up: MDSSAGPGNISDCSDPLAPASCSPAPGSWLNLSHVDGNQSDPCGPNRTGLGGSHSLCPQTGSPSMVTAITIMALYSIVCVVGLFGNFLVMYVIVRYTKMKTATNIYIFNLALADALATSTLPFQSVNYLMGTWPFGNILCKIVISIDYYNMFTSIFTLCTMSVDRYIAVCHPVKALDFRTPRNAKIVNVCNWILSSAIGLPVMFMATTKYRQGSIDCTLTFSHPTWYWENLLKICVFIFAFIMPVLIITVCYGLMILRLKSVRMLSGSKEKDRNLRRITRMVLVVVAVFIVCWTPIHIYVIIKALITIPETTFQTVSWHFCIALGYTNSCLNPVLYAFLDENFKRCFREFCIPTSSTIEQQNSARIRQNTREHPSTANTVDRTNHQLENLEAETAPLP
UniProt P32300, whole entry, looked up: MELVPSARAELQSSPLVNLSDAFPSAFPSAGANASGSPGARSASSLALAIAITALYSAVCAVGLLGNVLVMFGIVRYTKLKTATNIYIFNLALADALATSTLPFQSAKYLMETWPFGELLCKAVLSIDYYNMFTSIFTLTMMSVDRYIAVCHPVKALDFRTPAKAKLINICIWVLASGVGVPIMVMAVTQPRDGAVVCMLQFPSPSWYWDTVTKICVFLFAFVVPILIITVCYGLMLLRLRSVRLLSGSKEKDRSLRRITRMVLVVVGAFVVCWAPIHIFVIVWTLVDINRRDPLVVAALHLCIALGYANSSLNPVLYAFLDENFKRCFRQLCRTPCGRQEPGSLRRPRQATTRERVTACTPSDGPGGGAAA

Key:
Mu-type opioid receptor = Mu-type opioid receptor (Mus musculus, UniProt P42866); experiment: Displacement of [3H]DAMGO from mu opioid receptor in mouse whole brain without cerebellum
[1] = molecular target: Delta-type opioid receptor (Mus musculus, UniProt P32300); experiment: Displacement of [3H]DPDPE from delta opioid receptor in mouse whole brain without cerebellum

Compound	Ki (Mu-type opioid receptor)	Ki [1]
CN(C(=O)Cc1ccc(Cl)c(Cl)c1)[C@@H]1CCCC[C@H]1N1CCCC1	> 1000 nM	> 1000 nM
CN(C(=O)Cc1ccccc1)[C@H]1CC[C@@]2(CCCO2)C[C@@H]1N1CCCC1	> 1000 nM	> 1000 nM
